Measured values published in US20180008593A1 (Purdue Pharma L.P., priority 2005, published 2018).

Test system: experimental human pain model, healthy volunteers
Experiment: Pain-related evoked potentials (EEG) after CO2 stimulation of the nasal mucosa, Example 4
Assay type: in vivo
Conditions: 60% CO2; 20 mg oxycodone in combination with 45 mg naloxone
Experimental: This was a single site, single dose, double blind, placebo-controlled, 5-treatment, 5-period, randomized, balanced crossover study in healthy adult male and female subjects. […] Subjects were allocated each of the 5 treatments described in the synopsis according to a random allocation schedule (RAS). There was a 7-day washout period
Analgesic effects were assessed by means of an experimental human pain model based on the chemosomatosensory pain-related cortical potentials (CSSEPs) and pain-ratings after specific phasic nociceptive stimulation of the nasal mucosa with gaseous CO2. […]
In the first 20 minutes, 40 phasic CO2-stimuli were applied (20 stimuli at a concentration of 70% and 20 at a concentration of 60%, interstimulus interval 30 s). In response to these stimuli, pain-related potentials and subjective intensity estimates were recorded. […]
The EEG was recorded from 5 positions of the international 10/20 system (Cz, C3, C4, Fz and Pz; see FIG. 40) referenced to linked earlobes (A1+A2). Possible eye blink artifacts were monitored from an additional site (Fp2/A1+A2). […] The recorded analog EEG segments were then converted to digital and filed electronically. The average value for each recording position was separately calculated, discarding all eye blink contaminated records. […]

C=CCN1CC[C@]23c4c5ccc(O)c4O[C@H]2C(=O)CC[C@@]3(O)[C@H]1C5 [Naloxone, naloxone]
Magnitude of reduction of amplitude P1N1 at C4 compared to baseline: 12.8%
